From patent US6506576B2 (priority 2001, dated 2003)

Test system: non-neuronal cells in cerebellar cultures
Test: Inhibition of non-neuronal cell proliferation in primary cerebellar cultures (visual inspection, staining)
Assay type: cell-based, rat
Details: 10 μM AraC, NB-B27 or GCSF
Procedure: To inhibit proliferation of non-neuronal cells, a final concentration of 10 μM AraC was added to cultures after 24 hour in vitro.
Based on the calculated cell numbers, cerebellar cells were serially diluted in an appropriate volume of culture media and seeded into flat-bottom 96-well tissue culture plates pre-coated with poly-L-lysine (Becton Dickinson, Bedford, Mass.). The numbers of cerebellar cells seeded ranged from 6,250 to 400,000 cells per well (0.32 cm^2) in a final volume of 200 μl. Cultures were maintained in a humidified incubator in 5% CO2 at 37° C. After 24 hours in culture, a final concentration of 10 μM cytosine β-D-arabinofuranoside (AraC; Sigma) was added to each well to inhibit proliferation of non-neuronal cells.
Cerebellar cells were prepared as described above, seeded at 5×10^5 cells per well (0.32 cm^2) poly-L-lysine coated 4-well chamber slides, and cultured without added serum in GCSF or NB-B27 supplement with or without 10 μM AraC. After 7-30 day in vitro, cultures were washed 3 times with phosphate buffered saline (PBS) and fixed for 20-30 minutes with 4% paraformaldehyde in 0.1M sodium phosphate buffer (pH 7.4; PB). Following fixation, cells were washed 3 times with PBS, and either stained with 1% methylene blue (Sigma) in deionized water for 5 minutes and destained with deionized water or permeablized for immunostaining with 0.2% Triton X-100 in PBS. […]

cytosine β-D-arabinofuranoside [AraC]
loss of granule cell viability in presence of anti-mitotic agent: without a detectable loss of granule cell viability
